Measurements published in PMC3906007, “Discovery of a Small Molecule Agonist of Phosphatidylinositol 3-Kinase p110α That Reactivates Latent HIV-1” (PLoS ONE, 2014).
Read-outs that look alike come from different tables or passages of the source.

System: latent HIV-1 in CD8+-depleted MNC
Conditions: for Copies HIV RNA/mL: 7 days

For `O=C(CCCCCCC(=O)Nc1ccccc1)NO` [SAHA, vorinostat, reference compound], the “CD8+-depleted blood mononuclear cell preparations (donors) with increased HIV-1 expression” value (4 donors on suppressive cART tested) was 1 of the 4, the “Copies HIV RNA/mL” value (donor 1, 0.5 µM SAHA, control 96) was 0 copies/mL and the “Copies HIV RNA/mL” value (donor 1, 2 µM SAHA, control 96) was 51 copies/mL. The “Copies HIV RNA/mL” value (donor 2, 0.5 µM SAHA, control 0) was 0 copies/mL, the “Copies HIV RNA/mL” value (donor 2, 2 µM SAHA, control 0) was 24 copies/mL and the “Copies HIV RNA/mL” value (donor 4, 0.5 µM SAHA, control 20) was 0 copies/mL. The “Copies HIV RNA/mL” value (donor 4, 2 µM SAHA, control 20) was 23 copies/mL.
